Target: T1, PARP10 (Homo sapiens, UniProt Q53GL7)
T1 sequence (Q53GL7 1-1025): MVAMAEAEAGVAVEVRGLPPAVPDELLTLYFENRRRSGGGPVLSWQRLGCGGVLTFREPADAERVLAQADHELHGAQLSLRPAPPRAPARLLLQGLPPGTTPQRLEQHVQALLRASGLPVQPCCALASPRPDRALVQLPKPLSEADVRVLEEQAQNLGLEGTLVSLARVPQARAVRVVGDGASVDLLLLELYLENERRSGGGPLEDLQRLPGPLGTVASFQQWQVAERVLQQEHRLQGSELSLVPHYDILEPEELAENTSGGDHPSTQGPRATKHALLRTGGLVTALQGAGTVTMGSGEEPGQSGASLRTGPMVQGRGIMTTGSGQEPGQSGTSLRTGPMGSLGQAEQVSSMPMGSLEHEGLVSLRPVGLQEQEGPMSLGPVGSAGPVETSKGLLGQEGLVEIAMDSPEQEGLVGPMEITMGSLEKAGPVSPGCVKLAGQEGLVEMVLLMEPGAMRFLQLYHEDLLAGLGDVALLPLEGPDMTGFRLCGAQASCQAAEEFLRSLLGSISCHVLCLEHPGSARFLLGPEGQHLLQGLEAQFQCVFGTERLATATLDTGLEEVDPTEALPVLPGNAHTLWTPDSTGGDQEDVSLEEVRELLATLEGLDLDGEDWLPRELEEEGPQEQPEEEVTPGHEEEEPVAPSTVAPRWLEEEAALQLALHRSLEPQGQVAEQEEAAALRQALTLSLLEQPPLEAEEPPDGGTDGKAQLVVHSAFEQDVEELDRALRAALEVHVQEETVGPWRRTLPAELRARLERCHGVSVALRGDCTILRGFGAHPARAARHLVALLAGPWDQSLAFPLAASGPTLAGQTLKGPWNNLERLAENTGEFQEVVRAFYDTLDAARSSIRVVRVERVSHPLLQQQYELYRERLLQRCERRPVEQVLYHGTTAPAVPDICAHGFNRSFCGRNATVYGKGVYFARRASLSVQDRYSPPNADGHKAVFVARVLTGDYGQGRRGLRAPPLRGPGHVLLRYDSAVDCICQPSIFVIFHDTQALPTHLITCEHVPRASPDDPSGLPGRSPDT
Assay: In vitro ADP-ribosylation assay, PARP10
Format: biochemical
Details: PARP10 FL (full length)

IC50: 1900 nM | pIC50: 5.72±0.15
SMILES: C[C@]1(c2nc3c(C(N)=O)cccc3[nH]2)CCCN1 [Veliparib]

— PMC5934274 (Journal of medicinal chemistry, 2016)
